# In patent publication US20250171420A1 (Monte Rosa Therapeutics, Inc., priority 2022, published 2025):
# Amino acid sequences for entries named in this document (tags omitted). Residues count along the entry.
# UniProt P48729, whole entry: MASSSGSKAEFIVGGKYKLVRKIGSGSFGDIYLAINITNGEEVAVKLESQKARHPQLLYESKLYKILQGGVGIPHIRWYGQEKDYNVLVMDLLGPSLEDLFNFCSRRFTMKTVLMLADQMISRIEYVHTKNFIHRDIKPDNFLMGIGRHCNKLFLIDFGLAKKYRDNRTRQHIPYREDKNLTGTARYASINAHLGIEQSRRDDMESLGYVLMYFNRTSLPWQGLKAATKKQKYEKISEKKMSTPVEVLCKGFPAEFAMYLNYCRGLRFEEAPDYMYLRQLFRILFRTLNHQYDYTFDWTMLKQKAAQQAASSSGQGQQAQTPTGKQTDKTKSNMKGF
# UniProt Q96SW2, whole entry: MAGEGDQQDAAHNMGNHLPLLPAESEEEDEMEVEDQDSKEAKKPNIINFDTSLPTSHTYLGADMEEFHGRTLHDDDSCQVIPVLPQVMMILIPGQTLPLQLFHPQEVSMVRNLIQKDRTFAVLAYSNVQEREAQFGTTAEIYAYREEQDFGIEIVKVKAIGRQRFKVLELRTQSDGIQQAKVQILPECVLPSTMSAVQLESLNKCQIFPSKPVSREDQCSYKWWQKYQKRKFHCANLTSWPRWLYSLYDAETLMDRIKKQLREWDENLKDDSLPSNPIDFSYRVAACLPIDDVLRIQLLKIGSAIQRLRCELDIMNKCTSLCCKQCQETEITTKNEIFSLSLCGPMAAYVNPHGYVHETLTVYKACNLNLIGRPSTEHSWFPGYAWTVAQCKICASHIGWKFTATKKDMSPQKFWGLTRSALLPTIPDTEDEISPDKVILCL
# UniProt Q16531, 2-1140 partner limits assumed: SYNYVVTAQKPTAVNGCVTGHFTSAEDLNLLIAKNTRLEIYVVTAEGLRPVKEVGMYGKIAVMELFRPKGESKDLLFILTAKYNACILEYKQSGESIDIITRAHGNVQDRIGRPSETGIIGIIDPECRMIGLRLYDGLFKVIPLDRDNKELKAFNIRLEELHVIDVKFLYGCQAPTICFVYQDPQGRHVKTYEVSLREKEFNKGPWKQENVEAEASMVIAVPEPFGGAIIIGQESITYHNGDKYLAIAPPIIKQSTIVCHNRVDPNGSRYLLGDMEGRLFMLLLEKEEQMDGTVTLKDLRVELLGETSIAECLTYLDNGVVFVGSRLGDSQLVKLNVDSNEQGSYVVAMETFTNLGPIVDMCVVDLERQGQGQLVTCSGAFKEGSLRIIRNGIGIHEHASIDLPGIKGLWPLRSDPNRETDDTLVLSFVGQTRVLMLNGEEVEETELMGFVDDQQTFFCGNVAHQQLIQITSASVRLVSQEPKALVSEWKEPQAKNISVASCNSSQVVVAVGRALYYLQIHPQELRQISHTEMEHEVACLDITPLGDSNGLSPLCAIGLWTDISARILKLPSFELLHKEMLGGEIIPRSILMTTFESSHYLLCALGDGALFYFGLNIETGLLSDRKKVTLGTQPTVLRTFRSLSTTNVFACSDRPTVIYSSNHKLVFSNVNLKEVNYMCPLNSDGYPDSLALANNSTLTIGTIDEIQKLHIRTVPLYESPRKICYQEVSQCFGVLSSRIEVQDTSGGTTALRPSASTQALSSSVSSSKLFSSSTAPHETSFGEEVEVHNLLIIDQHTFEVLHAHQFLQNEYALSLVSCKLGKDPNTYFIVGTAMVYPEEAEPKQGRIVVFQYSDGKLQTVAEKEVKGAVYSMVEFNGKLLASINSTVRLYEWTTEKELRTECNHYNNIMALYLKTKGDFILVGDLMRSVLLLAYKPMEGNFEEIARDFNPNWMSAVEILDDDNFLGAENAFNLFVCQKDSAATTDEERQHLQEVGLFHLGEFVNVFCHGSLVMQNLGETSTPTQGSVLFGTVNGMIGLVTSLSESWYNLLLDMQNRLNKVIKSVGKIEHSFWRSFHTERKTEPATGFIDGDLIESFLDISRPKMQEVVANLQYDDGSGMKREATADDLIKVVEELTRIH
# UniProt Q16531, whole entry partner: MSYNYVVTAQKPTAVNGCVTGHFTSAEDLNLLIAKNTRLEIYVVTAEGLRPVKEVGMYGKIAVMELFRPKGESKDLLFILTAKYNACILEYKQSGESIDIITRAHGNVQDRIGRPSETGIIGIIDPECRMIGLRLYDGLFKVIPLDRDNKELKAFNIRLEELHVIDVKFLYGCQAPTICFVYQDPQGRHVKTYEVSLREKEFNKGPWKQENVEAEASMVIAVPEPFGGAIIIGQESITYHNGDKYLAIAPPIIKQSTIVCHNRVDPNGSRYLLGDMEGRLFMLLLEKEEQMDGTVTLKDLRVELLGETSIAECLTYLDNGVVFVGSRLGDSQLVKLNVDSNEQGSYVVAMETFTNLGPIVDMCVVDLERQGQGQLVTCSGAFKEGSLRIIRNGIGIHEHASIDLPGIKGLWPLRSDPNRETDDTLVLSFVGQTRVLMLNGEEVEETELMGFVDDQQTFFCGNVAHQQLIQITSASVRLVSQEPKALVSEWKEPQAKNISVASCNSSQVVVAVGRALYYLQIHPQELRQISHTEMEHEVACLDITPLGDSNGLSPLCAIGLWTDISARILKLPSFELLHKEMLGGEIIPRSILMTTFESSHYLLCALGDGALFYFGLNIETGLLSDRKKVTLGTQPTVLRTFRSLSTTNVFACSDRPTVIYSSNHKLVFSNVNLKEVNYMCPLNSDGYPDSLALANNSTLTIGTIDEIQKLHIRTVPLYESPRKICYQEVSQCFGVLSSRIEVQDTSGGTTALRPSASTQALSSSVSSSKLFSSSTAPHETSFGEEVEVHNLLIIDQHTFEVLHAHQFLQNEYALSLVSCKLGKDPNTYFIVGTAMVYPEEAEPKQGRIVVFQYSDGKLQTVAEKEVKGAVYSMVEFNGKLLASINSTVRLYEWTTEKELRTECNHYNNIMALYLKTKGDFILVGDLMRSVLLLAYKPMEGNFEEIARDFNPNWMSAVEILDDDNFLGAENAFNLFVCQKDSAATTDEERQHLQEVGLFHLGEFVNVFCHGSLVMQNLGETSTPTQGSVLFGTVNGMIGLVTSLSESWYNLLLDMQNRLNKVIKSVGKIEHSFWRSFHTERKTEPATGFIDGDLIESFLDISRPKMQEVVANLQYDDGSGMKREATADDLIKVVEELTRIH
# Tests used:
# [1] = biological target: CK1α (Homo sapiens, UniProt P48729+Q96SW2); test: CK1α NanoBit Assay (HiBiT-tagged CSNK1A1, HEK293 clonal lines); conditions: read-out: CK1α DC50 (μM) 24 h; HEK293 HiBiT-CSNK1A1/LgBiT cells, 24 h incubation
# [2] = biological target: CRBN/DDB1 (Homo sapiens, UniProt Q96SW2); test: HTRF binding assay (displacement of Cy5-thalidomide probe from CRBN/DDB1); conditions: read-out: HTRF_Thali_Disp_DR_geo_IC50; CRBN/DDB1 2.5 nM, Cy5-Thalidomide 100 nM, 30 min; geometric mean
# From the text: Binding of test compounds to CRBN/DDB1 was monitored in an HTRF assay using 1-[5-({2-[2-(2-{[2-(2,6-dioxopiperidin-3-yl)-1,3-dioxo-2,3-dihydro-1H-isoindol-4-yl]oxy}acetamido)ethoxy]ethyl}carbamoyl)pentyl]-3,3-dimethyl-2-[(1E,3E)-5-[(2E)-1,3,3-trimethyl-5-sulfo-2,3-dihydro-1H-indol-2-ylidene]penta-1,3-dien-1-yl]-3H-indol-1-ium-5-sulfonate as a fluorescent probe. In this assay, compounds displace the fluorescently labeled thalidomide-based probe bound to CRBN and fluorescence is monitored with increasing compound concentration. Assays were conducted in Greiner white 384 well HiBase plates (Cat. No 784075-25) in 10 μL total volume. A one pot detection solution of CRBN/DDB1 (2.5 nM), anti-His Terbium Cryptate Gold (1×, PerkinElmer Cat. #: 61HI2TLB), and Cy5-Thalidomide (100 nM, Tenova Cat.: T52461) was prepared in 20 mM HEPES, 20 mM NaCl, 0.2 mM TCEP, 0.2 mM EDTA, and 0.005% Tween20 was dispensed to each assay plate. Test compounds were stored in dry, ambient temperatures at 10 mM. A 10-point, 1:3 dilution series was prepared from 10 mM stock concentrations in Echo-compatible LDV plates. 10 nL of each compound dilution series was dispensed into assays wells using an Echo 650 (Labcyte inc. USA). 10 nL of 10 mM lenalidomide (Selleckchem Cat no. S1029) was transferred into the active-control wells for the assay and 10 nL of DMSO was transferred into the negative control wells. […]
Compound,DC50 [1] [µM],IC50 [2] [nM]
O=C1CCC(N2Cc3cc(NC(=O)N4C5C=CC4c4ccccc45)ccc3C2=O)C(=O)N1 (stereo not shown),> 1,–
CCOC[C@@H]1Cc2c(F)cccc2N1C(=O)Nc1ccc2c(c1)CN(C1CCC(=O)NC1=O)C2=O (stereo partly shown),< 0.1,> 1000
O=C1CCC(N2Cc3cc(NC(=O)N4C5CCC4c4ccccc45)ccc3C2=O)C(=O)N1 (stereo not shown),> 1,–
